Data from patent US20020049162A1, “Methods for inhibiting smooth muscle cell proliferation” (priority 2000, published 2002).

Tested on: Human coronary artery smooth muscle cells
Test: Inhibition of human smooth muscle cell proliferation (cell counts, growth rate vs wells without peptide)
Format: cell-based

AIII: AII(2-8), SEQ ID NO:2 (RVYIHPF) [reference compound]
Effect on proliferation of human smooth muscle cells (in words) (compared with wells that did not contain peptide): increased the proliferation | % Control Proliferation Day 1 vs Day 4 (percentage of the control growth rate, Day 1 vs Day 4, values below 100 = inhibition, peptides 0.1-10 μg/ml, concentration not given): 121.6% | % Control Proliferation Day 1 vs Day 7 (percentage of the control growth rate, Day 1 vs Day 7, values below 100 = inhibition, peptides 0.1-10 μg/ml, concentration not given): 136.4%
